Here are results for one compound from article PMC6044835, “Expression, Purification, and Biochemical Characterization of the Flavocytochrome P450 CYP505A30 from Myceliophthora thermophila” (ACS Omega, 2017).

Sequences of proteins named here, by UniProt entry; tags and fusion partners are left off.
UniProt G2QDZ3, entry or part of it: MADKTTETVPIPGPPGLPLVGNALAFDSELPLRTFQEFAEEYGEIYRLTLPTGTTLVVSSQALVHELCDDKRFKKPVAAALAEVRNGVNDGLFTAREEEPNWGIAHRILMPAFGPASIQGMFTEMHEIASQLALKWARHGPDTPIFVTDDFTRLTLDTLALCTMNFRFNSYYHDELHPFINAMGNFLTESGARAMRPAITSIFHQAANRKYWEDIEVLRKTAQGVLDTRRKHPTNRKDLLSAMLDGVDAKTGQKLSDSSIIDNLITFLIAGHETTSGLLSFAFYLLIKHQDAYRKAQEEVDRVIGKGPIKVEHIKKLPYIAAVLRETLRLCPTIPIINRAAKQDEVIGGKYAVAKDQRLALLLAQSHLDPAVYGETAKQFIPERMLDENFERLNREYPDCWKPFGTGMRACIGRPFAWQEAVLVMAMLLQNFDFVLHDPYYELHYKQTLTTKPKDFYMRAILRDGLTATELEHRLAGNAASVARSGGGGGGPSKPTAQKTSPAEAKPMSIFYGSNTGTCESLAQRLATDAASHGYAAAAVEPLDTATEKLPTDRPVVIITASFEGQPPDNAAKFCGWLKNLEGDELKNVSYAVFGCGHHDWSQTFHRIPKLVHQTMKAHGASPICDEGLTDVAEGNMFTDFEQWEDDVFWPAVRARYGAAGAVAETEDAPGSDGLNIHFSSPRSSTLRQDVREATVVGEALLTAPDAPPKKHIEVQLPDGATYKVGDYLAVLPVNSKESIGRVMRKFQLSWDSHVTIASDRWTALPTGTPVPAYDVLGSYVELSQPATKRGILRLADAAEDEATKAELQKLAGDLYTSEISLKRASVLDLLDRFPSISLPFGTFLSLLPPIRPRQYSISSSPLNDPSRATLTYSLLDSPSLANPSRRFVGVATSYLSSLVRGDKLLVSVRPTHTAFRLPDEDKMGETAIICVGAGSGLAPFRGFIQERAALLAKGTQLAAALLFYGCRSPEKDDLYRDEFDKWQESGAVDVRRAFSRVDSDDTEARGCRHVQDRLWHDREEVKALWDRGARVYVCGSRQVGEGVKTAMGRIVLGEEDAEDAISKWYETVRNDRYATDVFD

This data set deals with CYP505A30 (Thermothelomyces thermophilus, UniProt G2QDZ3). Conditions: read-out: apparent KD; hyperbolic dependence of kobs on [NADH], 10 °C.

With `NC(=O)C1=CN([C@@H]2O[C@H](COP(=O)(O)OP(=O)(O)OC[C@H]3O[C@@H](n4cnc5c(N)ncnc54)[C@H](O)[C@@H]3O)[C@@H](O)[C@H]2O)C=CC1` [NADH, reduced nicotinamide adenine dinucleotide], the Kd is 816 ± 113 µM.
